{"source": "patent US8637568B2", "about": "“Serotonin reuptake inhibitors” (Theravance, Inc., priority 2010, dated 2014)", "key": {"[1]": {"target": "T1, human recombinant serotonin transporter (hSERT) (Homo sapiens, UniProt P31645)", "T1 construct": "expressed in transfected cells; host or cells: HEK-293 (stably transfected), membrane preparation", "assay": "hSERT binding assay (3H-citalopram membrane radioligand binding)", "details": "inhibition of 3H-citalopram binding to membranes from HEK-293 cells expressing hSERT; Cheng-Prusoff", "protocol": "Membrane radioligand binding assays were used to measure inhibition of labeled ligand (^3H-citalopram) binding to membranes prepared from cells expressing the human recombinant serotonin transporter (hSERT) in order to determine the pKi values of test compounds at the transporters.\nRecombinant human embryonic kidney (HEK-293) derived cell lines stably transfected with hSERT, were grown in Dulbecco's Modified Eagle's Medium supplemented with 10% dialyzed fetal bovine serum, 100 μg/ml penicillin, 100 μg/ml streptomycin, 2 mM L-glutamine and 250 µg/ml of the aminoglycoside antibiotic G418, in a 5% CO2 humidified incubator at 37° C. […] Protein concentration of the membrane suspension was determined using a Bio-Rad Bradford Protein Assay kit. […]\nStock solutions (10 mM in DMSO) of test compound were prepared and serial dilutions made using Dilution Buffer (50 mM Tris-HCl, 120 mM NaCl, 5 mM KCl, pH 7.4, 0.1% bovine serum albumin, 400 μM ascorbic acid). Non-specific radioligand binding was determined in the presence of 1 μM duloxetine (in Dilution Buffer).\nFollowing a 60 minute incubation at 22° C. […] Plates were dried overnight at room temperature, −45 μl of MicroScint™-20 (Perkin Elmer) added and bound radioactivity quantitated via liquid scintillation spectroscopy. […]"}, "[2]": {"target": "T2, human recombinant SERT (HEK293-hSERT cells) (Homo sapiens, UniProt P31645)", "T2 construct": "expressed in transfected cells; host or cells: HEK293 (stably transfected), whole cells", "assay": "hSERT neurotransmitter uptake assay", "format": "cell-based", "details": "serotonin reuptake inhibition in HEK293-hSERT cells", "protocol": "HEK293 cells stably-transfected with human recombinant SERT (HEK293-hSERT) were grown in Dulbecco's Modified Eagle's Medium supplemented with 10% dialyzed fetal bovine serum, 100 µg/ml penicillin, 100 µg/ml streptomycin, 2 mM L-glutamine, and 250 μg/ml of the aminoglycoside antibiotic G418. Cells were incubated in a 5% CO2, humidified incubator at 37° C.\nIn pre-incubation studies, test compound was added to cells for 30 minutes at 37° C. prior to the addition of fluorescent substrate. […] For real-time measurements, compounds were either preincubated (as above) or mixed with substrate prior to addition, and kinetic measurements, relative fluorescence units (RFU integrated over 0.5 ms),were made using a cycle time of 1 min."}}, "data": [{"substance": "N-[(S)-2-(S)-Pyrrolidin-3-yl-2-(4-trifluoromethylphenoxy)ethyl]sulfonylurea [Example 3-9]", "values": [{"measurement": "SERT pKi", "setting": "[1]", "value": "≧8.0"}, {"measurement": "SERT pIC50", "setting": "[2]", "value": "≧8.0"}]}]}
